The structures appear in SMILES notation.

We go through one compound from ChEMBL document CHEMBL5696440, “Inhibition of BET recruitment to chromatin as an effective treatment for MLL-fusion leukaemia” (Nature, 2011).

The test has as its target Amine oxidase [flavin-containing] B (Homo sapiens, UniProt P27338). Briefly: Inhibition of human MAO B by FLINT assay.

Turning to `CCNC(=O)C[C@@H]1N=C(c2ccc(Cl)cc2)c2cc(OC)ccc2-n2c(C)nnc21` [MOLIBRESIB], half-maximal inhibition (IC50) required 25 µM.
